Data on one molecule can be found in ChEMBL document CHEMBL4138098, “Synthesis and pharmacological evaluation of neurosteroid photoaffinity ligands” (Eur J Med Chem, 2017).

The chains behind the UniProt entries cited, without tags or fusion partners. Where a name states a change or a piece, a line headed by the entry shows the natural chain unless it says otherwise.
UniProt P14867: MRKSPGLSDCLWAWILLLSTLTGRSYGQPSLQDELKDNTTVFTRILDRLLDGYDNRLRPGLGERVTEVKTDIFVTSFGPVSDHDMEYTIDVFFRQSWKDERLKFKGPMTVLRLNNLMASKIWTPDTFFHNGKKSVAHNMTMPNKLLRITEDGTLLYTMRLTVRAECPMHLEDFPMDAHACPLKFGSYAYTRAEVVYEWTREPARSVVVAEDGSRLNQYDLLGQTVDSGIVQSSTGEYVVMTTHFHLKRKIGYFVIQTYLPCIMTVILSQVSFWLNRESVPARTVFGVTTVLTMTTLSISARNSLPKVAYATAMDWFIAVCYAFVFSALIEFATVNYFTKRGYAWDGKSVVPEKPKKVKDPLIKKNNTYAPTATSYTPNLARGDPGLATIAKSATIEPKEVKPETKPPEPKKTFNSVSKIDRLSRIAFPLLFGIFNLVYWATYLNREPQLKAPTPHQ
UniProt P47870: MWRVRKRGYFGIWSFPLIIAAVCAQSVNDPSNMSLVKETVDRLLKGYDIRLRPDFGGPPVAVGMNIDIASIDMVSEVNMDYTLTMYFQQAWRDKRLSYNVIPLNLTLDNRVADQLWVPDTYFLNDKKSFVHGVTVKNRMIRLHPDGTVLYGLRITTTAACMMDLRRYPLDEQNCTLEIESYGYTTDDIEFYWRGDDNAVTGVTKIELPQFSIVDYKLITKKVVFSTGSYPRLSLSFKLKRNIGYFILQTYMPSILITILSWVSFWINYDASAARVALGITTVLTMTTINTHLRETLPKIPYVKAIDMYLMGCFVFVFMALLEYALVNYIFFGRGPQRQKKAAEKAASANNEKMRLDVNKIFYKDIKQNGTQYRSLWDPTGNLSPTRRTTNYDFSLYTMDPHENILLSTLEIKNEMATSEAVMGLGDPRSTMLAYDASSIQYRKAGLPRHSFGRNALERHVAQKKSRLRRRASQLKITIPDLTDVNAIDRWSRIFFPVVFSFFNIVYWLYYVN
UniProt P18507: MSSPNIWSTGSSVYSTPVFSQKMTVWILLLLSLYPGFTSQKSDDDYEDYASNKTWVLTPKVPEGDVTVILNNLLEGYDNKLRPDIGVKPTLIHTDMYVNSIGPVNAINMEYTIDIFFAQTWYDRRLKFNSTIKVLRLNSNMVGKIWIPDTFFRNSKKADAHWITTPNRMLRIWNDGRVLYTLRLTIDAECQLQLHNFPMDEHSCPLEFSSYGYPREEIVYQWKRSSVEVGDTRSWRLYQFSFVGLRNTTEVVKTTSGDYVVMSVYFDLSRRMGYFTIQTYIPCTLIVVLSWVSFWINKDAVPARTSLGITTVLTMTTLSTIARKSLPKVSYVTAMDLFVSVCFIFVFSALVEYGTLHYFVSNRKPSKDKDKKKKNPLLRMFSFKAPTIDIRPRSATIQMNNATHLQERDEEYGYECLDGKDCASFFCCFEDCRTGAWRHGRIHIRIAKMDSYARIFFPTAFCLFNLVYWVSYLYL

Each structure is given as a SMILES string.

The assay addresses GABA-A receptor; alpha-1/beta-2/gamma-2 (Homo sapiens) (UniProt P14867+P47870+P18507). Briefly: Positive allosteric modulation of human GABAA receptor alpha1beta2gamma2L expressed in Xenopus laevis oocytes assessed as potentiation of GABA chloride current up to 100 uM incubated for 15 to 25 secs by two-electrode voltage clamp assay relative to control. In kind it is cell-based. In a few lines:
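Xenopus laevis oocytes injected with ~100 ng cRNA of human α1, β2, γ2L (1:1:2). Two-electrode voltage clamp at −50 mV, room temperature, perfused with ND96 pH 7.5. Compound diluted from DMSO stock into ND96 (≤1% DMSO final). Applied 15–25 s with ~3 min washes.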
A general note: Two-electrode voltage clamp is typically applied to oocytes expressing channels or transporters.

Consider `CC(=O)[C@H]1CC[C@H]2[C@@H]3CC[C@H]4C[C@H](O)CC[C@]4(C)[C@H]3C(=O)C[C@]12C` [ALFAXALONE], for which the fold change (FC) came out at 30.
